How the values were obtained:
ExoI = target: T1, ExoI (Escherichia coli, UniProt P04995); assay: biochemical; format: binding, E. coli
T1 construct: His-tag (cleaved yes); host or cells: E. coli BL21 (DE3) pLysS
Method: (§1) Triplicate measurements were performed using a Clariostar Plus Microplate Reader in 384-well plates for all fluorescence anisotropy (FA) experiments. The settings were 25 °C, excitation at 485 nm, emission at 510 nm, settling time of 0.2 s, and 200 flashes per well.
(§2) Competition fluorescence anisotropy experiments were carried out as follows: protein (0.5 μM either ExoI or RecO) was incubated with 50 nM F-wtSSB peptide and 0–500 μM unlabeled wtSSB (or a variant) peptide for 30 min at room temperature. For direct fluorescence anisotropy measurements, 16 µM ExoI and 7.5 µM RecO were used in the first well. After serial dilution, either 50 nM of F-mSSB or F-sSSB was added to the wells and then incubated for 30 min. […]
(§3) Fluorescence anisotropy values were normalized and are shown as bound fractions (BF, %). […]
(§4) Competitive fluorescence anisotropy was analyzed in Origin Pro 9.5, and IC50 values were determined using the Logistic Nonlinear fit function and are shown as plots for each mutated position for each protein in Figures S4 and S6. EC50 values from direct fluorescence anisotropy titrations were plotted in Origin 9.5. Values were determined using the Logistics Nonlinear fit function.

Chains of the proteins cited; added tags and fusions are not shown. Lines headed by an entry give the natural chain unless they say otherwise; changes in a name come on top. Residues count along the entry.
UniProt P04995, 1-471: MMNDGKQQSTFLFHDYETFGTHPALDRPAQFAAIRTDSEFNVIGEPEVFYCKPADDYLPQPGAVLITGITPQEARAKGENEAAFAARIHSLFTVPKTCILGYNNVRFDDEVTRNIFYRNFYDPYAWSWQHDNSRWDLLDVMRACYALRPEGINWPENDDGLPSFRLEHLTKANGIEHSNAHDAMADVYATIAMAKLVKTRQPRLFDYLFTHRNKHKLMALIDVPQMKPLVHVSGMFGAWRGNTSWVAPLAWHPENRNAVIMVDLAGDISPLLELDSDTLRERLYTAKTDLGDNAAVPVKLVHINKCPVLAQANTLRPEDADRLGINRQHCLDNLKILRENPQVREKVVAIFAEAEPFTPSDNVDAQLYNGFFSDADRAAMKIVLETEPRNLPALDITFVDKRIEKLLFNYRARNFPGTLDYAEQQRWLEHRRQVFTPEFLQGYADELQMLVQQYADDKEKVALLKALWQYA
UniProt P0A7H3: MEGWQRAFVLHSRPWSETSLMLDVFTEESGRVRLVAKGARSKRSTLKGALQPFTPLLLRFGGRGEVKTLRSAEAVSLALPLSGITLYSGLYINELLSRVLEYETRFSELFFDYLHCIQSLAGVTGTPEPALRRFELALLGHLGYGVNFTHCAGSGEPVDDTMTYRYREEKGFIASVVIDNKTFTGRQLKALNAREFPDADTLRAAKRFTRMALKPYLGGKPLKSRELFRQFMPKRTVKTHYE

RecO = target: T2, RecO (Escherichia coli, UniProt P0A7H3); assay: biochemical; format: binding
T2 construct: His-tag (TEV site) (N, cleaved yes); made in house; host or cells: E. coli Rosetta cells
Method: as §1, §2, §3, §4

For `CC[C@H](C)[C@H](NC(=O)[C@H](CC(=O)O)NC(C)=O)C(=O)N1CCC[C@H]1C(=O)N[C@@H](Cc1ccccc1)C(=O)O` [DIPF], the IC50 (ExoI) was 102 ± 6.61 µM and the IC50 (RecO) was 44.8 ± 4.53 µM.

From PMC10143822, “Structural Adaptation of the Single-Stranded DNA-Binding Protein C-Terminal to DNA Metabolizing Partners Guides Inhibitor Design” (Pharmaceutics, 2023)
